Sequences of proteins named here, by UniProt entry; tags and fusion partners are left off. A change or cut given only in a name is not applied to a line headed by its entry.
UniProt P08482: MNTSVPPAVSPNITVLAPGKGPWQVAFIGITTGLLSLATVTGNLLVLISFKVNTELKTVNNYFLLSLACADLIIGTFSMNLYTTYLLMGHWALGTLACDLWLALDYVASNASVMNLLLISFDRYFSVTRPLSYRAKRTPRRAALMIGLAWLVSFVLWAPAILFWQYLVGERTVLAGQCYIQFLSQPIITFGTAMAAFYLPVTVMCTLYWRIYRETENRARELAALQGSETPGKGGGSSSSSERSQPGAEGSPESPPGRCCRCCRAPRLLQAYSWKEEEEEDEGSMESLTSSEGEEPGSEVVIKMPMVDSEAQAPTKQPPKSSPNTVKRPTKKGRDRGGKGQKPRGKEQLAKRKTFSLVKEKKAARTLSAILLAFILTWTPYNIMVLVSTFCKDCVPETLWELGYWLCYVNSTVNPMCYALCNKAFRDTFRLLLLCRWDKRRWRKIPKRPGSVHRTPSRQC

According to ChEMBL document CHEMBL1131294, “Universal template approach to drug design: polyamines as selective muscarinic receptor antagonists” (J Med Chem, 1998):

Target: Muscarinic acetylcholine receptor M1 (Rattus norvegicus, UniProt P08482)
Experiment: Binding affinity for rat cortex Muscarinic acetylcholine receptor M1
Method in brief: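 Rat cerebral cortex homogenate (200 µg protein) competed against 5 nM [3H]pirenzepine. Incubation 2 h at 25 °C in 50 mM sodium phosphate pH 7.4 with 2 mM MgCl2 and 1% BSA. Nonspecific binding defined with 10 µM atropine. Filtration on PEI-soaked glass-fiber filters. Ki by Cheng-Prusoff; at least three experiments, each in triplicate.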

- Ki: 41.7 nM
SMILES: COc1ccccc1CNCCCCCCNCCCCCCCCNCCCCCCNCc1ccccc1OC [METHOCTRAMINE]
